For one compound, pKa results are on record in ChEMBL document CHEMBL3272356, “Adriamycin analogs. Periodate oxidation of adriamycin” (J Med Chem, 1976).

What is called pKa is the negative logarithm of the acid dissociation constant.

A short description of the data set: Dissociation constant, pKa of the compound.

In turn, `COc1cccc2c1C(=O)c1c(O)c3c(c(O)c1C2=O)C[C@@](O)(C(=O)CO)C[C@@H]3O[C@H]1C[C@H](N)[C@H](O)[C@H](C)O1` [DOXORUBICIN] displayed a pKa of 8.22.
